Measured values from paper PMC3241856 (ACS chemical biology, 2011).

By UniProt entry, the sequences of proteins in these tests, tags left out.
UniProt P33535, whole entry: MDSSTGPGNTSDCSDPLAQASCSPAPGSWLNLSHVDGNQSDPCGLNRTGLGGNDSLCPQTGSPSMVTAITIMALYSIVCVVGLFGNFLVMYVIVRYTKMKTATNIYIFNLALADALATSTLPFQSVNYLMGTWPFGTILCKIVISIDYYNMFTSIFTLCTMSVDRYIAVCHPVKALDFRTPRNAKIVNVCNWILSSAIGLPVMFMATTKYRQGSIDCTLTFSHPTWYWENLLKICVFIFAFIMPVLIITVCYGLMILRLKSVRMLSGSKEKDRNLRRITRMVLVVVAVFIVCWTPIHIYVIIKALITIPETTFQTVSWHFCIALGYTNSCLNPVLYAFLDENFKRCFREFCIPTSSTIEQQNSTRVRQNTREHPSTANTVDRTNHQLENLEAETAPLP

Biological target: mu opioid receptor (MOR) (Rattus norvegicus, UniProt P33535)
Assay: Whole cell inhibition of forskolin-stimulated adenylyl cyclase, C6-MOR cells
Type: cell-based

With “[D-Ala^2-N-Me-Phe^4-Gly^5-ol]-enkephalin [DAMGO]” the “maximal inhibition of forskolin-stimulated cAMP production” value was 86 ± 4.3%.
